Laboratory results: patent publication US11541027B2, “Use of dianhydrogalactitol and analogs or derivatives thereof in combination with platinum-containing antineoplastic agents to treat non-small-cell carcinoma of the lung and brain metastases” (DelMar Pharmaceuticals, Inc., priority 2014, dated 2023)

Key:
[1] = tested on: HCT-116 p21−/− versus p21+/+; experiment: Resistance factors in engineered HCT-116 tumor models, p21 knockout; assay type: cell-based, human; settings: loss of p21 (p21−/− vs p21+/+)
From the text: (§1) FIG. 13 is a graph showing the cytotoxicity of dianhydrogalactitol (“DAG”) and the platinum drugs cisplatin (“cis-Pt”) and oxaliplatin (“Oxali-Pt”) against engineered HCT-116 tumor models in vitro. To better explore dependency of activity on p53 status, the molecularly engineered colorectal HCT-116 models were used. These isogenic models were molecularly engineered to knockout p53 (p53^−/−) or p21 (p21^−/−). The p53^+/+ or p21^+/+ represent the corresponding control. The p53^−/− cell lines are described in J. Boyer et al., “Characterization of p53 Wild-Type and Null Isogenic Colorectal Cell Lines Resistant to 5-Fluorouracil, Oxaliplatin, and Irinotecan,” Clin. Cancer Res. 10: 2158-2167 (2004), incorporated herein by this reference. The p21^−/− cell lines are described in Z. Han et al., “Role of p21 in Apoptosis and Senescence of Human Colon Cancer Cells Treated with Camptothecin,” J. Biol. Chem. 277: 17154-17160 (2002), incorporated herein by this reference. These IC50 values were used to determine resistance of knockout models relative to corresponding controls.
(§2) FIG. 14 is a graph showing the resistance factors for dianhydrogalactitol (“DAG”) and the platinum drugs cisplatin (“cis-Pt”) and oxaliplatin (“Oxali-Pt”) in engineered HCT-116 tumor models in vitro.

[2] = tested on: HCT-116 p53−/− versus p53+/+; experiment: Resistance factors in engineered HCT-116 tumor models, p53 knockout; assay type: cell-based, human; settings: loss of p53 (p53−/− vs p53+/+)
From the text: as §1, §2

dianhydrogalactitol
resistance of knockout model relative to corresponding control [1]: non-existent
resistance of knockout model relative to corresponding control ([2]; listed as DAG): lower
resistance of knockout model relative to corresponding control ([2]; listed as VAL-083): < 2 fold
